# Results from patent US20240082406A1, “BENZOHETEROCYCLE SUBSTITUTED TETRAHYDROISOQUINOLINE COMPOUND” (SHANGHAI JEMINCARE PHARMACEUTICAL CO., LTD, priority 2020, published 2024).
# Protein sequences, listed by entry. Tags and fused reporters are not part of them.
# UniProt P48764, whole entry: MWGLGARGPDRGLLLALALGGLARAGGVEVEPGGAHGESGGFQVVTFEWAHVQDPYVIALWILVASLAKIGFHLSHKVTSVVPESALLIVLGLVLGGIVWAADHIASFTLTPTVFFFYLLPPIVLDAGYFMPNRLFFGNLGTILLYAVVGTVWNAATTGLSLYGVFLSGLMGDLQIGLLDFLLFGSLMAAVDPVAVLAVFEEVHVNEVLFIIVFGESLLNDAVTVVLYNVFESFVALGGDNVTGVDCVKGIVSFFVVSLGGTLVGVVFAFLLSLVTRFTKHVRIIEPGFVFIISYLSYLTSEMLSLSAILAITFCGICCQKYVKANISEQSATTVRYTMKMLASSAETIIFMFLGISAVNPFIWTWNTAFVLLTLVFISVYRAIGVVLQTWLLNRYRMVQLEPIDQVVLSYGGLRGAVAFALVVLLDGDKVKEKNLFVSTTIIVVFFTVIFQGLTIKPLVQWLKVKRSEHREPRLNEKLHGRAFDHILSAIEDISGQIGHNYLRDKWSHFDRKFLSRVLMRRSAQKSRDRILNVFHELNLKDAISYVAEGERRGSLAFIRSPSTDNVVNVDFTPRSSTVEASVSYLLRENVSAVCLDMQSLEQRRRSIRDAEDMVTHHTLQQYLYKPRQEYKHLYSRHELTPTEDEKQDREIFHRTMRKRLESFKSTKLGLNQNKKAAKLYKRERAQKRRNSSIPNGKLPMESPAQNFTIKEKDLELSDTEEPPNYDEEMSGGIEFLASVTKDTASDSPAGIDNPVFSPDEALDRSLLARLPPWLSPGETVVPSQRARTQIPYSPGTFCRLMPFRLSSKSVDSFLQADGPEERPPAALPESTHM
# Assays:
# [1] = target: NHE3 (UniProt P48764); assay: Cell-based NHE3 activity under transient conditions (BCECF-AM intracellular pH, FLIPR); conditions: read-out: Cell-based NHE3 inhibition IC50 (uM) under transient conditions, embodiment compounds, opossum kidney cells expressing NHE3, tested form: HCl
# Description: (§1) Opossum kidney (OK) cells were obtained from ATCC and cultured and expanded according to its instructions. OK monoclonal stable cell lines expressing the Rat NHE3 (Gene Bank registration number: M85300) protein and OK monoclonal stable cell lines expressing the Human NHE3 (Gene Bank registration number: NM_004174.1) protein were constructed by lentivirus infection.
# The general procedure of the cell-based NHE3 activity experiments under transient conditions (transient inhibition) was based on an adaptation method of the pH-sensitive dye method originally reported by Tisen (Proc. Natl. Acad. Sci. USA) (1984) 81(23):7436-7440) to measure rat NHE3-mediated Na+-dependent reverse H+ transport, and was optimized according to the instructions “Measuring Intracellular pH With the FLIPR and FLIPR 384 Fluorometric Imaging Plate Reader Systems” published by Molecular Devices. The specific method was: Rat NHE3 OK monoclonal cells or Human NHE3 OK monoclonal cells were inoculated into 384-well plates and grew overnight. […] NHE3-mediated pH sensitization in cells was normalized by addition of containing 0.4 mM amiloride (EIPA) and […] test compound or Na-HEPES buffer (100 mM NaCl, 50 mM HEPES, 10 mM glucose, 5 mM KCl, 2 mM CaCl2), 1 mM MgCl2, pH 7.4) and monitoring of BCECF-AM fluorescence at λem 535 nm excitated by λex 440 nm and λex 490 nm respectively. […]
# [2] = target: NHE3 (UniProt P48764); assay: Cell-based NHE3 activity under persistent conditions (60 min pre-incubation, compound removed); conditions: read-out: Cell-based NHE3 inhibition IC50 (uM) under persistent conditions, opossum kidney cells expressing NHE3, tested form: HCl
# Description: as §1
# The general procedure of the cell-based NHE3 activity assay under persistent conditions (persistent inhibition) was: Rat NHE3 OK monoclonal cells or Human NHE3 OK monoclonal cells were inoculated into 384-well plates and grew overnight. The medium was aspirated from the wells and the cells were washed twice with FLIPR buffer (Hank's BSS 1×, 20 mM HEPES, 1% BSA) followed by the addition of Na-HEPES buffer containing […] test compound (100 mM NaCl, 50 mM HEPES, 10 mM glucose, 5 mM KCl, 2 mM CaCl2, 1 mM MgCl2, pH 7.4) and incubated for 60 minutes at room temperature. […] Ratio=fluorescence value (λex 490 nm)/fluorescence value (λex 440 nm) was set, the average value of the Ratio difference between the end time and the start time between the duplicate wells was calculated, the average value and the concentration value of the compound were drawn, and the dose-response-inhibition (four parameters) equation was used to estimate EC50 value by GraphpadPrism.
smiles,measurement,setting,value
CN1Cc2c(Cl)cc(Cl)cc2C(c2ccc3cn(CCOCCOCCOCCNC(=O)NCCCCNC(=O)NCCOCCOCCOCCn4cc5ccc(C6CN(C)Cc7c(Cl)cc(Cl)cc76)cc5n4)nc3c2)C1 (centres unmarked),IC50,[1],0.16 µM
same,IC50,[2],0.02 µM
